# Test results: ChEMBL document CHEMBL1130257, “(Aryloxy)alkylamines as selective human dopamine D4 receptor antagonists: potential antipsychotic agents” (J Med Chem, 1997)
# Amino acid sequences for entries named in this document (tags omitted).
# UniProt P35462, whole entry: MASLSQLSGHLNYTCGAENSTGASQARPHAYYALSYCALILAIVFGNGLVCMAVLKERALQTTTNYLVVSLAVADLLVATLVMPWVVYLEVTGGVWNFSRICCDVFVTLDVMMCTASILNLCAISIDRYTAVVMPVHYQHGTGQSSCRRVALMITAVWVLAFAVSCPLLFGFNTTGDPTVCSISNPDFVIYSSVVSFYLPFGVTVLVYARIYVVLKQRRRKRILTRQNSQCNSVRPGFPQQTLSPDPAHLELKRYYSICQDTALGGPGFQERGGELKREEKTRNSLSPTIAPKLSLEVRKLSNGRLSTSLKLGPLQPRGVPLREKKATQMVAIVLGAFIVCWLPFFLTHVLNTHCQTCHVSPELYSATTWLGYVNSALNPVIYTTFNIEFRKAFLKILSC
# Target: D(3) dopamine receptor (Homo sapiens, UniProt P35462)
# Experiment: biochemical
structure (smiles),measurement,value
Cc1ccc(OCCCNCCOc2ccccc2)cc1,Ki,66 nM
